Data on two molecules can be found in patent US8796267B2, “Oxazolidinone derivatives and methods of use” (Concert Pharmaceuticals, Inc., priority 2006, dated 2014).

The conditions of data set [1]: in words.
For data set [2] the following is noted: chimpanzee urine, in words.

`[2H]C1([2H])OC([2H])([2H])C([2H])([2H])N(c2ccc(N3C[C@H](CNC(C)=O)OC3=O)cc2F)C1([2H])[2H]` [Compound 101]: the stabilization in primates entry in data set [1] is listed as “marked potentiation in the stabilization”. In the case of `[2H]C([2H])(NC(C)=O)[C@H]1CN(c2ccc(N3C([2H])([2H])C([2H])([2H])OC([2H])([2H])C3([2H])[2H])c(F)c2)C(=O)O1` [Compound 100], the “amount of deuterated M4 metabolite versus linezolid M4 metabolite” value in data set [2] is “significantly lower”. The stabilization in primates result in data set [1] was “marked potentiation in the stabilization”.
